From PMC6017663, “Investigation of an ^18F-labelled Imidazopyridotriazine for Molecular Imaging of Cyclic Nucleotide Phosphodiesterase 2A” (Molecules : A Journal of Synthetic Chemistry and Natural …, 2018)

Chains of the proteins cited; added tags and fusions are not shown. Residues count along the entry.
UniProt O00408, 2-941: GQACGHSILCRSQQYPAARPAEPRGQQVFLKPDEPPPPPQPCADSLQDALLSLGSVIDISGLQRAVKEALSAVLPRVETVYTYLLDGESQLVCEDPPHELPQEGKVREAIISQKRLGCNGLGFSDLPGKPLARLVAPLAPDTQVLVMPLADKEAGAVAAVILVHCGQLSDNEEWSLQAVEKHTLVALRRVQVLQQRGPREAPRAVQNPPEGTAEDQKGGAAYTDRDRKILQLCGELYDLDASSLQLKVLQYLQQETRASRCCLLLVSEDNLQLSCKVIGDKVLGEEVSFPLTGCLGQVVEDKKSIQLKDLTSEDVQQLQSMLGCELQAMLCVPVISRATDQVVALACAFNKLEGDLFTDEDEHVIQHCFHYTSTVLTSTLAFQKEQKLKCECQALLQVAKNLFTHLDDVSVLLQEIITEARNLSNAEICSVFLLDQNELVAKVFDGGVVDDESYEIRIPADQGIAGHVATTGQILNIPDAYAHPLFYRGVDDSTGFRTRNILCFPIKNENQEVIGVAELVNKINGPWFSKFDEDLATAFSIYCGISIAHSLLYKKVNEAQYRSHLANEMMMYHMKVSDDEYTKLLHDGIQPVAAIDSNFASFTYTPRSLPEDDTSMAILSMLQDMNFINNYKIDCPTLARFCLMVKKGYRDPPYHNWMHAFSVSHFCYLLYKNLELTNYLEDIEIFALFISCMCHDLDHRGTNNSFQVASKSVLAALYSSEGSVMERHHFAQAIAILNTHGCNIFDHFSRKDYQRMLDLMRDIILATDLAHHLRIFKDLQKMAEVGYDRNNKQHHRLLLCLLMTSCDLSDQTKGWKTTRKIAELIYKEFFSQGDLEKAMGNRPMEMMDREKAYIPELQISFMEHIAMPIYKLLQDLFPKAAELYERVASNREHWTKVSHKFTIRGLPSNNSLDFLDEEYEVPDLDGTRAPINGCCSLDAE

Target: cyclic nucleotide phosphodiesterase 2A (PDE2A) (Homo sapiens, UniProt O00408)
Experiment: enzyme inhibition assay with human recombinant PDE2A (BioCrea)
Assay type: biochemical
Settings: read-out: IC50 hPDE2A

In the case of `CCCCOc1ccc(F)c(-c2nc(C)c3nnc4ccc(OCCF)nc4n23)c1` [TA5, 9-(5-Butoxy-2-fluorophenyl)-2-(2-fluoroethoxy)-7-methylimidazo[5,1-c]pyrido[2,3-e]-[1,2,4]triazine], the IC50 is reported as 3 nM.
